Results from patent US12152019B2, “Arylalkyl pyrazole compounds as indoleamine 2,3-dioxygenase inhibitors” (Merck Sharp & Dohme LLC, priority 2018, dated 2024).

The chains behind the UniProt entries cited, without tags or fusion partners.
UniProt P14902, whole entry: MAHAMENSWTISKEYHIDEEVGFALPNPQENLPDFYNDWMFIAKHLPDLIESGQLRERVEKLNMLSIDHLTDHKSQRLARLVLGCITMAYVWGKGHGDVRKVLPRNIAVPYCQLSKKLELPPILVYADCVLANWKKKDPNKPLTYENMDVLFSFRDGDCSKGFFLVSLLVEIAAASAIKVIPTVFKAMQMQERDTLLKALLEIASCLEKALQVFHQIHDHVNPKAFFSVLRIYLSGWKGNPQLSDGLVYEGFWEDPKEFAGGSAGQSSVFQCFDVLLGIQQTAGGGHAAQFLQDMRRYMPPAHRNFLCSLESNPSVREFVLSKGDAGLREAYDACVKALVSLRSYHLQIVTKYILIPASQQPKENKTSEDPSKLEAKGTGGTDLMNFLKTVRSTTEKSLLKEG

The compounds below were run against IDO1 (Homo sapiens, UniProt P14902) (assay: IDO1 Cellular Assay in HeLa Cells Stimulated with IFNγ). Conditions: HeLa cells stimulated with IFNγ 100 ng/mL, 300 uM L-tryptophan, about 48 hours, fluorescence readout; read-out: HeLa Cell Potency, IC50.
Type: cell-based

| SMILES | IC50 |
| --- | --- |
| Cc1c(Cl)cccc1N1CCC(CCn2nc(C(=O)N3CCC(O)(CF)CC3)c3c2CCC3)CC1 [Example 15] | 31.6 nM |
| COC(Cn1nc(C(=O)N2C[C@@H](C)O[C@@H](C)C2)c2c1CCC2)C1CCN(c2cccc(C)c2C)CC1 (single isomer, unassigned) [Example 46] | 66.7 nM |
| O=C(c1nn(CCC2CCN(c3cccc(F)c3F)CC2)c2c1CCC2)N1CCC(O)CC1 [Example 5, [1-[2-[1-(2,3-difluorophenyl)piperidin-1-ium-4-yl]ethyl]-5,6-dihydro-4H-cyclopenta[c]pyrazol-3-yl]-(4-hydroxy-1-piperidyl)methanone] | 93.8 nM |
| O=C(c1ccccc1)N1CCC(CCn2nc(C(=O)N3CCC(O)CC3)c3c2CCC3)CC1 [Example 42, [4-[2-[3-(4-hydroxypiperidine-1-carbonyl)-5,6-dihydro-4H-cyclopenta[c]pyrazol-1-yl]ethyl]-1-piperidyl]-phenyl-methanone] | 444 nM |
| CC(=O)NC1CCN(C(=O)c2nn(CC[C@H]3CC[C@@H](Oc4ncccc4C(F)(F)F)CC3)c3c2CCC3)CC1 [Example 63, N-(1-(1-(2-((1s,4s)-4-((3-(trifluoromethyl)pyridin-2-yl)oxy)cyclohexyl)ethyl)-1,4,5,6-tetrahydrocyclopenta[c]pyrazole-3-carbonyl)piperidin-4-yl)acetamide] | 0.727 nM |
| Cc1cccc(N2CCC(C(O)Cn3nc(C(=O)N4C[C@@H](C)O[C@@H](C)C4)c4c3CCC4)CC2)c1C (single isomer, unassigned) [Example 44] | 13.5 nM |
| Cc1cccc(C2CCC(CCn3nc(C(=O)N4CCC(O)CC4)c4c3CCC4)CC2)c1C (single isomer, unassigned) [Example 95, (1-(2-(4-(2,3-dimethylphenyl)cyclohexyl)ethyl)-1,4,5,6-tetrahydrocyclopenta[c]pyrazol-3-yl)(4-hydroxypiperidin-1-yl)methanone] | 2.12 nM |
| O=C(c1nn(CCC2CCN(c3ccncc3C(F)(F)F)CC2)c2c1CCC2)N1CCC(O)CC1 [Example 7, (4-hydroxy-1-piperidyl)-[1-[2-[1-[3-(trifluoromethyl)pyridin-1-ium-4-yl]-4-piperidyl]ethyl]-5,6-dihydro-4H-cyclopenta[c]pyrazol-3-yl]methanone] | 125 nM |
| CC(=O)NC1CCN(C(=O)c2nn(CCC3CCN(c4cccc(F)c4C)CC3)c3c2CCCC3)CC1 [Example 17, N-[1-[1-[2-[1-(3-fluoro-2-methyl-phenyl)-4-piperidyl]ethyl]-4,5,6,7-tetrahydroindazole-3-carbonyl]-4-piperidyl]acetamide] | 1.44 nM |
| CC(=O)NC1CCN(C(=O)c2nn(CCC3CCN(c4cccc(Cl)n4)CC3)c3c2CCCC3)CC1 [Example 38, N-[1-[1-[2-[1-(6-chloro-2-pyridyl)-4-piperidyl]ethyl]-4,5,6,7-tetrahydroindazole-3-carbonyl]-4-piperidyl]acetamide] | 20.9 nM |
| CC(=O)NC1CCN(C(=O)c2nn(CC[C@H]3CC[C@@H](Oc4ncccc4C)CC3)c3c2[C@@H]2C[C@@H]2C3)CC1 [Example 93, N-{1-[(3bR,4aR)-1-(2-{cis-4-[(3-methylpyridin-2-yl)oxy]cyclohexyl}ethyl)-3b,4,4a,5-tetrahydro-1H-cyclopropa[3,4]cyclopenta[1,2-c]pyrazole-3-carbonyl]piperidin-4-yl}acetamide] | 1.53 nM |
| Cc1cccnc1O[C@H]1CC[C@@H](CCn2nc(C(=O)N3CC[C@H](O)[C@H](F)C3)c3c2C[C@H]2C[C@@H]32)CC1 [Example 83, [(3R,4S)-3-fluoro-4-hydroxypiperidin-1-yl] [(3bR,4aR)-1-(2-{cis-4-[(3-methylpyridin-2-yl)oxy]cyclohexyl}ethyl)-3b,4,4a,5-tetrahydro-1H-cyclopropa[3,4]cyclopenta [1,2-c]pyrazol-3-yl] methanone] | 0.883 nM |
| CC(=O)NC1CCN(C(=O)c2nn(CC[C@H]3CC[C@@H](Oc4ccccc4C(F)(F)F)CC3)c3c2CCC3)CC1 [Example 65, N-(1-(1-(2-((1s,4s)-4-(2-(trifluoromethyl)phenoxy)cyclohexyl)ethyl)-1,4,5,6-tetrahydrocyclopenta[c]pyrazole-3-carbonyl)piperidin-4-yl)acetamide] | < 0.508 nM |
| CC(=O)NC1CCN(C(=O)c2nn(CCC3CCN(c4cccnc4C)CC3)c3c2CCCC3)CC1 [Example 28, N-[1-[1-[2-[1-(2-methyl-3-pyridyl)-4-piperidyl]ethyl]-4,5,6,7-tetrahydroindazole-3-carbonyl]-4-piperidyl]acetamide] | 9.47 nM |
| Cc1c(Cl)cccc1N1CCN(CCn2nc(C(=O)N3CCC(O)CC3)c3c2C[C@H]2C[C@@H]32)CC1 [Example 101, ((3bR,4aR)-1-(2-(4-(3-chloro-2-methylphenyl)piperazin-1-yl)ethyl)-3b,4,4a,5-tetrahydro-1H-cyclopropa[3,4]cyclopenta[1,2-c]pyrazol-3-yl)(4-hydroxypiperidin-1-yl)methanone] | 41.8 nM |
| CC(=O)NC1CCN(C(=O)c2nn(CCC3CCN(c4ccc(F)c(F)c4C)CC3)c3c2CCCC3)CC1 [Example 18, N-[1-[1-[2-[1-(3,4-difluoro-2-methyl-phenyl)-4-piperidyl]ethyl]-4,5,6,7-tetrahydroindazole-3-carbonyl]-4-piperidyl]acetamide] | 1.52 nM |
| Cc1cccc(N2CCN(CCn3nc(C(=O)N4CCC(O)CC4)c4c3C[C@H]3C[C@@H]43)CC2)c1C [Example 99, ((3bR,4aR)-1-(2-(4-(2,3-dimethylphenyl)piperazin-1-yl)ethyl)-3b,4,4a,5-tetrahydro-1H-cyclopropa[3,4]cyclopenta[1,2-c]pyrazol-3-yl)(4-hydroxypiperidin-1-yl)methanone] | 33.8 nM |
| O=C(c1nn(CCC2CCN(c3cccc(C(F)(F)F)c3)CC2)c2c1CCC2)N1CCC(O)CC1 [Example 4, (4-hydroxy-1-piperidyl)-[1-[2-[1-[3-(trifluoromethyl)phenyl]-4-piperidyl]ethyl]-5,6-dihydro-4H-cyclopenta[c]pyrazol-3-yl]methanone] | 67.2 nM |
| CC(=O)NC1CCN(C(=O)c2nn(CCC3CCN(c4cc(C(F)(F)F)ccn4)CC3)c3c2CCCC3)CC1 [Example 37, N-[1-[1-[2-[1-[4-(trifluoromethyl)-2-pyridyl]-4-piperidyl]ethyl]-4,5,6,7-tetrahydroindazole-3-carbonyl]-4-piperidyl]acetamide] | 5.02 nM |
| Cc1cccnc1O[C@H]1CC[C@@H](CCn2nc(C(=O)N3CCC(O)CC3)c3c2C[C@H](C(F)F)CC3)CC1 [Example 87, [(6R)-6-(difluoromethyl)-1-(2-{cis-4-[(3-methylpyridin-2-yl)oxy]cyclohexyl}ethyl)-4,5,6,7-tetrahydro-1H-indazol-3-yl](4-hydroxypiperidin-1-yl)methanone] | 12 nM |
| Cc1cccnc1O[C@H]1CC[C@@H](CCn2nc(C(=O)N3CCC(O)CC3)c3c2C[C@@H](C(F)F)CC3)CC1 [Example 84, [(6S)-6-(difluoromethyl)-1-(2-{cis-4-[(3-methylpyridin-2-yl)oxy]cyclohexyl}ethyl)-4,5,6,7-tetrahydro-1H-indazol-3-yl](4-hydroxypiperidin-1-yl)methanone] | 22.6 nM |
| CC(=O)NC1CCN(C(=O)c2nn(CCC3CCN(c4ccc(Cl)nn4)CC3)c3c2CCCC3)CC1 [Example 33, N-[1-[1-[2-[1-(6-chloropyridazin-3-yl)-4-piperidyl]ethyl]-4,5,6,7-tetrahydroindazole-3-carbonyl]-4-piperidyl]acetamide] | 68.5 nM |
| CC(=O)NC1CCN(C(=O)c2nn(CC[C@H]3CC[C@@H](Oc4nccc(C)c4C#N)CC3)c3c2CCC3)CC1 [Example 66, N-(1-(1-(2-((1s,4s)-4-((3-cyano-4-methylpyridin-2-yl)oxy)cyclohexyl)ethyl)-1,4,5,6-tetrahydrocyclopenta[c]pyrazole-3-carbonyl)piperidin-4-yl)acetamide] | 0.642 nM |
| CC(=O)NC1CCN(C(=O)c2nn(CCC3CCN(c4ncc(C(F)(F)F)cc4Cl)CC3)c3c2CCCC3)CC1 [Example 36, N-[1-[1-[2-[1-[3-chloro-5-(trifluoromethyl)-2-pyridyl]-4-piperidyl]ethyl]-4,5,6,7-tetrahydroindazole-3-carbonyl]-4-piperidyl]acetamide] | 4.14 nM |
| CC(=O)NC1CCN(C(=O)c2nn(CCC3CCN(c4nccnc4C)CC3)c3c2CCCC3)CC1 [Example 25, N-[1-[1-[2-[1-(3-methylpyrazin-2-yl)-4-piperidyl]ethyl]-4,5,6,7-tetrahydroindazole-3-carbonyl]-4-piperidyl]acetamide] | 3.66 nM |
| Cc1c(Cl)cccc1N1CCC(CCn2nc(C(=O)N3CCN(C(=O)CO)CC3)c3c2CCC3)CC1 [Example 12, 1-[4-[1-[2-[1-(3-chloro-2-methyl-phenyl)piperidin-1-ium-4-yl]ethyl]-5,6-dihydro-4H-cyclopenta[c]pyrazole-3-carbonyl]piperazin-1-yl]-2-hydroxy-ethanone] | 16.7 nM |
| Cc1c(F)ccc(C2CCC(CCn3nc(C(=O)N4CCC(F)(CO)CC4)c4c3CCC4)CC2)c1C (single isomer, unassigned) [Example 52, (1-(2-(4-(4-fluoro-2,3-dimethylphenyl)cyclohexyl)ethyl)-1,4,5,6-tetrahydrocyclopenta[c]pyrazol-3-yl)(4-fluoro-4-(hydroxymethyl)piperidin-1-yl)methanone] | 2.99 nM |
| Cc1c(Cl)cccc1O[C@H]1CC[C@H](CCn2nc(C(=O)N3C[C@@H](C)O[C@@H](C)C3)c3c2CCC3)CC1 [Example 54, (1-(2-((1r,4R)-4-(3-chloro-2-methylphenoxy)cyclohexyl)ethyl)-1,4,5,6-tetrahydrocyclopenta[c]pyrazol-3-yl)((2R,6S)-2,6-dimethylmorpholino)methanone] | 47.7 nM |
| CC(=O)NC1CCN(C(=O)c2nn(CCC3CCN(c4cc(C#N)ccn4)CC3)c3c2CCCC3)CC1 [Example 40, N-[1-[1-[2-[1-(4-cyano-2-pyridyl)-4-piperidyl]ethyl]-4,5,6,7-tetrahydroindazole-3-carbonyl]-4-pipridyl]acetamide] | 22.9 nM |
| Cc1cccc(N2CCC(C(O)Cn3nc(C(=O)N4C[C@@H](C)O[C@@H](C)C4)c4c3CCC4)CC2)c1C (single isomer, unassigned) [Example 43] | 103 nM |
